Data on two molecules can be found in ChEMBL document CHEMBL2146377, “Rational design of 4-aryl-1,2,3-triazoles for indoleamine 2,3-dioxygenase 1 inhibition” (J Med Chem, 2012).

Chains of the proteins cited; added tags and fusions are not shown.
UniProt P14902, whole entry: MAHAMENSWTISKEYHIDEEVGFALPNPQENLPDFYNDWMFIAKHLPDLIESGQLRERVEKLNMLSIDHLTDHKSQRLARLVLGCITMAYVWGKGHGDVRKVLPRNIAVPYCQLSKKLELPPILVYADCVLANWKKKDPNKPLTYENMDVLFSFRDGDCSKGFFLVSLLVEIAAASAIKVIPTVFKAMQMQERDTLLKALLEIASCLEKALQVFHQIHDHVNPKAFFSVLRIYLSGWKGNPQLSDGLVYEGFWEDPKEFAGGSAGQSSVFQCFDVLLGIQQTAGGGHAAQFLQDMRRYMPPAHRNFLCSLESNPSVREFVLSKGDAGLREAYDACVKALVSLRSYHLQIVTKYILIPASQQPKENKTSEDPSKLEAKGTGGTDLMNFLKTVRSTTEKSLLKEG

Molecules are shown by their SMILES.

Data set [1] deals with T1, Indoleamine 2,3-dioxygenase 1 (Homo sapiens, UniProt P14902). As to the kind of experiment: Inhibition of human recombinant N-terminal His-tagged IDO1 (Ala2 to Gly403) overexpressed in Escherichia coli BL21 at pH 6.5 after 60 mins by HPLC analysis.
For data set [2], the target named is T1, Indoleamine 2,3-dioxygenase 1. As to the kind of experiment: Inhibition of human recombinant N-terminal His-tagged IDO1 (Ala2 to Gly403) overexpressed in Escherichia coli BL21 at pH 7.4 after 60 mins by HPLC analysis.
The target is the same in data set [3]. As to the kind of experiment: Inhibition of human IDO1 transfected in mouse P815B clone-6 cells by HPLC analysis. In kind it is cell-based.
The nature of data set [4]: Dissociation constant, pKa of the compound at pH 11 to 12 by spectrophotometric analysis. The format is physicochemical.
A further data set in a line: physchem. The following applies: pH 2.

Consider `Oc1ccc(Cl)cc1-c1c[nH]nn1`, for which the IC50 worked out at 330 nM in data set [1], 71 nM in data set [2] and 80 nM in data set [3].
Regarding `c1ccc2[nH]nnc2c1` [BENZOTRIAZOLE], the figures for the pKa (in data set [4]; in the data set “physchem”) were 1.6 and 8.6, respectively.
